Only a part is listed here, and it is no random draw. Active and inactive are the calls of the source. No stated cut-off is given here; in the data, active means activation above about 7.8%; inactive means the rest.
Assay: SMARCA2 (BRM) function activators, primary screen, cell-based, luminescence, high throughput (AID 652017);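 further: 0% = vehicle wells and 100% = reference activator wells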
Details: MG213 cells, MMTV-luciferase reporter, dexamethasone, overnight; at 9.1 µM; hits give high values

Row | Structure (SMILES) | activation
1 | CCC(=O)N(c1ccccc1)C1(COC)CCN(CCc2cccs2)CC1 | inactive: 0.63%
2 | CCC(=O)N(c1ccccc1)C1(COC)CCN(CCn2nnn(CC)c2=O)CC1 | inactive: -6.55%

Source: PubChem BioAssay AID652017 (The Scripps Research Institute Molecular Screening Center, 2013)
